Target: TNKS2 (GST-tagged tankyrase 2 PARP domain, TNKS2P) (Homo sapiens (Human), UniProt Q9H2K2)
Assay: TNKS2 autoparsylation (AP) enzyme assay, LC/MS detection of nicotinamide
Format: biochemical
Conditions: 60 min, room temperature
Protocol: The human tankyrase 1 PARP catalytic domain, TNKS1P, was cloned into a pDONR221 vector using the Invitrogen Gateway Technology. This entry clone was then subcloned into the destination vector pDEST20 to obtain the N-terminal Glutathione S-transferase (GST)-tagged fusion protein.
The autoparsylation activity of the TNKS 1/2 or PARP1/2 enzymes was measured by the liquid chromatography-mass spectrometry (LC/MS) detection of nicotinamide as readout.

Protein sequences, listed by entry. Tags and fused reporters are not part of them. Residues count along the entry.
UniProt Q9H2K2, 959-1164: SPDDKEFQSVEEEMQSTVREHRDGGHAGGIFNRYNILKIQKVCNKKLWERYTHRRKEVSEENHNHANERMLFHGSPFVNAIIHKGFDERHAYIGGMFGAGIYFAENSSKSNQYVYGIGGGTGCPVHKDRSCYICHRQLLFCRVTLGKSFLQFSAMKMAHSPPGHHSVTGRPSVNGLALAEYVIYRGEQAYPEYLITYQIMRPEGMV

Row | Compound | IC50 [nM]
1 | COc1ccc(C(=O)C2CCN([C@@H]3CCN(CC(=O)Nc4nnc5n4CCS5)C3=O)CC2)cc1 (single isomer, unassigned) [Example 34] | 16 ± 1
2 | COc1ccc2c(c1)CC1(CCN([C@H]3CCN(Cc4nc5c(c(=O)[nH]4)COCC5)C3=O)CC1)C2=O [Example 16, (S)-2-((3-(5-methoxy-1-oxo-1,3-dihydrospiro[indene-2,4′-piperidine]-1′-yl)-2-oxopyrrolidin-1-yl)methyl)-7,8-dihydro-3H-pyrano[4,3-d]pyrimidin-4(5H)-one] | < 8.6
3 | COc1ccc2c(c1)CC1(CCN([C@@H]3CCN(Cc4nc5c(c(=O)[nH]4)COCC5)C3=O)CC1)C2=O [Example 17, (R)-2-((3-(5-methoxy-1-oxo-1,3-dihydrospiro[indene-2,4′-piperidine]-1′-yl)-2-oxopyrrolidin-1-yl)methyl)-7,8-dihydro-3H-pyrano[4,3-d]pyrimidin-4(5H)-one] | 1720 ± 120
4 | COc1ccc(C(=O)C2CCN([C@H]3CCN(CC(=O)Nc4nnc5n4CCS5)C3=O)CC2)cc1 [Example 33, N-(5,6-dihydrothiazolo[2,3-c][1,2,4]triazol-3-yl)-2-((S)-3-(4-(4-methoxybenzoyl)piperidin-1-yl)-2-oxopyrrolidin-1-yl)acetamide] | 374 ± 2

From USRE46942E1, “4-piperidinyl compounds for use as tankyrase inhibitors” (NOVARTIS AG, priority 2011, dated 2018)
